Tested on: P. berghei
Assay type: in vivo, Plasmodium berghei (mice)

Compound: C[C@H]1Cc2c([nH]c3cc(Cl)c(F)cc23)[C@@]2(N1)C(=O)Nc1ccc(Cl)cc12 [NITD609]
- Cure (%) (1 × 100 mg/kg oral, cure = no parasite present at day 30, 100 mg/kg): completely clear P. berghei infection in all treated mice
- Cure (three daily oral doses of 50 mg/kg): complete cure

— publication PMC3050001 (Science (New York, N.Y.), 2010)
